ChEMBL document CHEMBL1800055, “Orally active MMP-1 sparing α-tetrahydropyranyl and α-piperidinyl sulfone matrix metalloproteinase (MMP) inhibitors with efficacy in cancer, arthritis, and cardiovascular disease” (J Med Chem, 2010)

Protein sequences, listed by entry. Tags and fused reporters are not part of them. Lines headed by an entry give the natural chain unless they say otherwise; changes in a name come on top.
UniProt P08254: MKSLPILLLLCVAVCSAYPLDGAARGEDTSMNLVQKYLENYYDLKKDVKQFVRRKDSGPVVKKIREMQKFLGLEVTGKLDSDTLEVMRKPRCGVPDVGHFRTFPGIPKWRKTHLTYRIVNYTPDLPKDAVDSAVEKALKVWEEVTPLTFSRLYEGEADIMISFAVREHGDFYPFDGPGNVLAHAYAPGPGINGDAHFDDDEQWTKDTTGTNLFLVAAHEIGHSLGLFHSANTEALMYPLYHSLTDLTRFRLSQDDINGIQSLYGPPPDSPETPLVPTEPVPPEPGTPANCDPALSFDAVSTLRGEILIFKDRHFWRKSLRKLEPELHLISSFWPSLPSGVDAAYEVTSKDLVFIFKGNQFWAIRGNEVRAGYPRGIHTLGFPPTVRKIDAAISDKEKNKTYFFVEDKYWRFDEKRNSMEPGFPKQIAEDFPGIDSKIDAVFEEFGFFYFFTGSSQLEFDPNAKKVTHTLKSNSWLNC
UniProt P08253: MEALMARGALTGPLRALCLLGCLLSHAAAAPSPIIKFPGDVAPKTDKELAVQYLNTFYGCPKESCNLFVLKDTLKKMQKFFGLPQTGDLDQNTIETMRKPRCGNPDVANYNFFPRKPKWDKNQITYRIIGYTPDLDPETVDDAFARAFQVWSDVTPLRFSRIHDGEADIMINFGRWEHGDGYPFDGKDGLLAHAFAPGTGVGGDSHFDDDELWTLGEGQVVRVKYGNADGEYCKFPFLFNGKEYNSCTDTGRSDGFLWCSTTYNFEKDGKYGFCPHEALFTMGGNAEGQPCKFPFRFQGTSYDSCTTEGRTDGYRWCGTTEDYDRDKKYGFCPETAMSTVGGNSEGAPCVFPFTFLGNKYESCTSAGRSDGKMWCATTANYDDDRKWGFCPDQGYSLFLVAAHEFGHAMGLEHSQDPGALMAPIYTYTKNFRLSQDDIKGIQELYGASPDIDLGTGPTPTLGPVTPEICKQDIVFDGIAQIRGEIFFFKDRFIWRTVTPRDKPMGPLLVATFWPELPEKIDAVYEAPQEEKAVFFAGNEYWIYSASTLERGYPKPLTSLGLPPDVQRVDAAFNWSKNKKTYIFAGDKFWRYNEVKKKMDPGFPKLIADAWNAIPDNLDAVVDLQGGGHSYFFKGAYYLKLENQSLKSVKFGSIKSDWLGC

Tests used:
[1] = target: Stromelysin-1 (Homo sapiens, UniProt P08254)
[2] = target: 72 kDa type IV collagenase (Homo sapiens, UniProt P08253)

| Compound | IC50 [1] [µM] | IC50 [2] [µM] |
| --- | --- | --- |
| O=C(NO)C1(S(=O)(=O)c2ccc(Oc3ccc(SC(F)(F)F)cc3)cc2)CCOCC1 | 0.02 |  |
| CCOCCN1CCC(C(=O)NO)(S(=O)(=O)c2ccc(Oc3ccc(OC(F)(F)F)cc3)cc2)CC1 |  | < 0.0001 |
